Source: ChEMBL document CHEMBL4811320, “Design, synthesis and biological evaluation of 2-styryl-5-hydroxy-4-pyrone derivatives and analogues as multiple functional agents with the potential for the treatment of Alzheimer's disease” (Bioorg Med Chem, 2021)

Amino acid sequences for entries named in this document (tags omitted). A change or cut given only in a name is not applied to a line headed by its entry.
UniProt Q9Y5N1: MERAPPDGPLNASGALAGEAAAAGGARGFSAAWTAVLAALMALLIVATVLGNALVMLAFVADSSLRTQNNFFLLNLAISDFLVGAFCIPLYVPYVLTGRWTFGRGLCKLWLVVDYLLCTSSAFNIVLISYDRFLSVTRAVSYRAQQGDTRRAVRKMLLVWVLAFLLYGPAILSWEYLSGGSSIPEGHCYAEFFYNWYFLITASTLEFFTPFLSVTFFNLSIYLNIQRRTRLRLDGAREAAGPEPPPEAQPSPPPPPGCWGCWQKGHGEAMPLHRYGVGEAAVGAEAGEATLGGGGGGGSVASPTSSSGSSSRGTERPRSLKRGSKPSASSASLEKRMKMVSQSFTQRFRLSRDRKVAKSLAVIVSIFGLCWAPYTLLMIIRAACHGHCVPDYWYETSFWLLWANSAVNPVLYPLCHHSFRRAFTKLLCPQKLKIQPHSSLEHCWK

Target: Histamine H3 receptor (Homo sapiens, UniProt Q9Y5N1)
Test: Antagonist activity at human H3 receptor by TR-FRET assay
Format: functional

## NC(=NCc1ccc(Cl)cc1)SCCCc1cnc[nH]1 [CLOBENPROPIT]
  pIC50: 8.88

pIC50: −log10 of the molar value.
